Structures are written as SMILES. The list shows a part of the results, in another mix than the full data. Entries with a potency or affinity are not part of this list. The source made the active and inactive calls. Rule as the data show it: active = activation above about 50% (passing the limit was not always enough); inactive = the rest.

Amino acid sequences for entries named in this document (tags omitted).
UniProt P41145, whole entry: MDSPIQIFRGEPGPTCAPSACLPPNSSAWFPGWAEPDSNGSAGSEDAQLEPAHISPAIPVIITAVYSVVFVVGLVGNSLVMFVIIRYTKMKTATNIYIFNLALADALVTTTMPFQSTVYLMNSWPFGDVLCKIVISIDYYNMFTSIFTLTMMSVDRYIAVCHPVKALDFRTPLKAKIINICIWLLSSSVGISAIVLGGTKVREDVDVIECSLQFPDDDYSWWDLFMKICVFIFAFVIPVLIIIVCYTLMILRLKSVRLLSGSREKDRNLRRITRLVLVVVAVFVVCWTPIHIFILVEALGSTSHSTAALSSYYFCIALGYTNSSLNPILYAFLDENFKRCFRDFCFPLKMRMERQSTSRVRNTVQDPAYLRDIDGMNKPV

The experiment addresses Kappa-type opioid receptor (Homo sapiens) (UniProt P41145). Put plainly: KOR agonists, beta-arrestin recruitment, primary screen, cell-based, luminescence, uHTS (AID 1777). Conditions: at 10 µM, active compounds read high.
Consider `Cc1n[nH]c(C)c1S(=O)(=O)N1CCC(C(=O)N2CCn3c2nc2ccccc23)CC1`, for which the activation is inactive: -12.8%.

Source of the values: PubChem BioAssay AID1777 (Sanford-Burnham Center for Chemical Genomics, 2009).
